# Values quoted from earlier work in patent publication US20250367233A1, “NOVEL PHARMACEUTICAL COMPOSITION CONTAINING IRON AND MEGLUMINE” (priority 2024, published 2025).
# Settings: cited from earlier work
substance,measurement,setting,value
iron dextran,risk for anaphylaxis at first exposure,"first exposure, IV iron, JAMA. 2015, 314(19):2062-2068","68 per 100,000 persons"
same,adjusted odds ratio (OR) of anaphylaxis,"iron dextran versus all non-dextran IV iron products combined, 95% CI, 2.0-3.3, P<0.001",2.6
